{
  "source": "patent US20200392239A1",
  "about": "“USE OF A MULTIMERIC ANTI-DR5 BINDING MOLECULE IN COMBINATION WITH A CHEMOTHERAPEUTIC AGENT FOR TREATING CANCER” (IGM Biosciences, Inc., priority 2018, published 2020)",
  "origin": "cited, not measured here",
  "molecular_target": "DR5 (Homo sapiens, UniProt O14763)",
  "conditions": "Reck et al., 2013; cited from earlier work",
  "data": [
    {"substance": "Tigatuzumab: anti-DR5 monoclonal antibody (CS-1008, Daiichi Sankyo Co. Ltd., U.S. Pat. No. 7,244,429)", "values": [
      {"measurement": "clinical efficacy", "result": "not resulted in significant clinical efficacy"}
    ]}
  ]
}
